In patent US20250309306A1, “Cationic Viologen Derivatives and Use Thereof in Redox Flow Batteries” (priority 2024, published 2025):

Assay: Water solubility by quantitative NMR
Type: physicochemical
Conditions: thermodynamic from solid, Table 3, at 20° C.
Protocol: The compound to be tested was dissolved in 100 μl D2O until saturation was reached. Any undissolved compound was filtered off and the filtrate was combined with a standard solution containing a known amount of a calibration compound as an internal reference. The sample is investigated using 1H NMR. […] The solubility of the compound to be tested was then calculated from a relative concentration determination based on the known calibration compound concentration.

[Br-].[Br-].c1cc[n+]2c(c1)-c1cccc[n+]1CC2 [reference compound] gave a solubility of over 1500 mM.
